# scFv variants of Ab-14 (light chain) against a SARS-CoV-2 spike peptide

Binding partner: SARS-CoV-2 spike HR2 peptide, sequence PDVDLGDISGINAS.

The variants keep the heavy chain, the linker and the frameworks of Ab-14 (scFv order VH, a 15-residue (Gly4Ser)3 linker, VL).
VH: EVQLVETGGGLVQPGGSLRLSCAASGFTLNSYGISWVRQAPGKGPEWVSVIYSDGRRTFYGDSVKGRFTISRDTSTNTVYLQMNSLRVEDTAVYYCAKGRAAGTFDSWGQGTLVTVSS
VL: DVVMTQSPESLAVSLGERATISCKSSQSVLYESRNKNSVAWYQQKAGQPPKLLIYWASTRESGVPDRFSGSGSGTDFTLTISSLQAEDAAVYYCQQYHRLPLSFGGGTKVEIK

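The starting antibody came from a phage panning campaign against this peptide. These sequences belong to a second round, designed from the earlier measurements on random variants of the parent. Group labels follow the data file (Ctrl: baseline library sampled from a position-specific scoring matrix, with some repeated check sequences; En: ensemble of fine-tuned language models; GP: Gaussian process model; HC: hill climbing; Gen: genetic algorithm; Gibbs: Gibbs sampling; a sequence that several methods proposed may carry one label only). In AlphaSeq, yeast of one mating type display the scFv and yeast of the other type display the target. Binding brings cells together so that they mate, and sequencing counts the barcode pairs among the diploids. Each replicate has its own calibration line, from reference interactions of the BCL2 family. There are six technical replicates.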

The parent's light chain CDRs are KSSQSVLYESRNKNSVA, WASTRES, QQYHRLPLS; each variant's own CDRs replace them letter for letter. Each Kd is an estimate from the mating assay, the geometric mean of the replicates in which the pair was seen; lower is stronger. Where no diploid with the target was found in any replicate, the entry reads "nd": below detection, most likely a poor binder, though not proof of it. Three control strains display no target. For all light chain designs, 4% of the pairings with them gave a signal, with a median of 430 nM and one signal in twenty below 38 nM, so weak values seen in few replicates may be background. For each scFv, signals with the empty controls are counted beside the result.

CDR-L1	CDR-L2	CDR-L3	group	Kd	detected	signal with controls
KSDQSVLYESRDKNSVA	HASTRED	QQYHRLPLS	GP_HC	2.2 nM	6 of 6	3 of 18
NFSQMVSTGMTLRNSVA	HAETRFN	QQYHRLPLI	En_HC	14 nM	6 of 6	2 of 18
KIGHGLTTEMYNRNSVA	QTETRVQ	QHYHRLPLS	En_HC	13 nM	6 of 6	1 of 18
KISQMVKVGITHNNSIA	EEVTRAK	QQYHRLPLA	En_Gen	270 nM	4 of 6	2 of 18
KLQGSELGESRNKNSVA	SADTRCE	QQYHRLPLS	GP_Gibbs	1.7 nM	6 of 6	1 of 18
HSSPSQYYEDREFNSVA	NASQRES	QQYHRLPLS	GP_Gibbs	1.5 nM	6 of 6	1 of 18
KSRQAVMYESKNKNSVA	WASTRES	QQYHRLPLF	Ctrl	nd	0 of 6	0 of 18
KLSQSFLYESRNKNSVA	EASTRES	QQYHRLPLS	GP_Gen	350 pM	6 of 6	1 of 18
KSSQSVLDESRNKNSVA	SASTRES	QQYARLPLS	Ctrl	1.7 nM	6 of 6	0 of 18
MISQLMNMGQFAINSVA	QASIRNQ	QQYDRLPLV	En_Gen	43 nM	5 of 6	0 of 18
KSSQSVLYESRNKNSVA	MASTRES	QQYSRLPLS	Ctrl	3.7 nM	2 of 6	0 of 18
KVTMYELEMRFNGSAVA	AAEVRAP	QQYWRLPLE	En_Gibbs	130 nM	5 of 6	0 of 18
KFSQSQLYESRNKNSVA	NASQRES	QQYHRLPLS	GP_Gen	590 pM	6 of 6	0 of 18
KLSQSMLYESRNKNSVA	NASTRES	QDYHRLPLS	GP_Gen	1.7 nM	6 of 6	2 of 18
QLGGVQDMTSKNKNSVA	EQSTREN	QQYHRLPLS	En_HC	1.6 nM	6 of 6	0 of 18
MFSSLMEYGMRYKNSVA	QASTREN	QQYHWLPLS	En_HC	nd	0 of 6	1 of 18
KLSQSHLYESRNKNSVA	DASTRES	QQYHRLPLS	GP_Gen	690 pM	6 of 6	0 of 18
KLMWSMQYWSRNKNSVA	GASTRES	QQYHRLPLS	GP_Gibbs	3.4 nM	6 of 6	0 of 18
KSAWSVLYESNNKNSVA	HASTRED	QQYHRLPLS	GP_HC	11 nM	6 of 6	1 of 18
KLSQSVLYESRNKNSVA	DASTRES	YAYHRLPSS	GP_HC	nd	0 of 6	1 of 18
ASSPSVMGEERNSNSVA	AASTREQ	QQYHRLPLS	GP_Gibbs	780 pM	6 of 6	0 of 18
KIGMTLNTLSHKQNNVA	DLVTREN	QQYYRLPLS	En_Gen	2.7 nM	6 of 6	0 of 18
KISMLQRFQQNAKNNIA	EMSRREE	QQYHRLPLS	En_HC	29 nM	6 of 6	0 of 18
KSSQSVLYDSRNKNSVA	TASTRES	QQYHRLPLS	Ctrl	1.5 nM	6 of 6	1 of 18
KSSQSTLYESRNKNSVA	WASTRES	QQYHVLPLS	Ctrl	550 nM	5 of 6	0 of 18
KWSQGVMGESRNKNSVA	DASTRES	QQYERLPLS	GP_Gibbs	1.5 nM	6 of 6	0 of 18
KLSQSTWYESRMKNSVA	NASLREQ	QQYHRLPLS	GP_Gibbs	1.4 nM	6 of 6	0 of 18

Further variants, results first:

Kd	detected	signal with controls	CDR-L1	CDR-L2	CDR-L3	group
810 pM	6 of 6	0 of 18	KLQQSVLYESRNKNSVA	EASTRLS	QQYHRLPLS	GP_Gen
6.3 nM	6 of 6	2 of 18	TISGMSNAASSKHNSVA	NVTMRPD	QQYHRLPLS	En_Gen
39 nM	1 of 6	0 of 18	IVSQLMLWGMHAKNSIA	EAQTRLN	QQYDRLPLF	En_Gen
18 nM	6 of 6	0 of 18	KLSWSVGYGSRNKNSVA	EASTRMS	QQYHRLPLY	GP_Gibbs
5.4 nM	6 of 6	0 of 18	KIRVHNLMFYQNENSIA	GVSNRAY	QQYYHLPLT	En_Gibbs
1.9 µM	4 of 6	1 of 18	TIGGTLMYGYRNRSNVA	EVSERLN	QQYDRLPLF	En_Gen
22 nM	6 of 6	0 of 18	KSSQSVLMESRNKNSVA	HASTRES	QQYHRLPLS	Ctrl
nd	0 of 6	1 of 18	VMFMGLYWQNDEHQAIA	NVTMREK	QQYHRLPLQ	En_Gibbs
450 pM	6 of 6	0 of 18	KSQQSVLYESRNGNNVA	HASTRED	QQYHRLPLS	GP_HC
120 nM	5 of 6	0 of 18	KSSVSVLYEDRNKNSVA	WASTRES	QSYHRLPLS	Ctrl
820 pM	6 of 6	2 of 18	KLSQSMLYESRVKNNVA	DAHQRES	QMYHRLPLS	GP_Gibbs
nd	0 of 6	0 of 18	KHSQSVLYESRNKNSVA	AALTRHS	QQYCRLPLS	Ctrl
3.1 nM	6 of 6	0 of 18	GILSQMDGPTEYKENIA	NGTERLR	QQYQRLPLT	En_Gibbs
1.7 nM	6 of 6	0 of 18	KVPQSYLYESRNKNSVA	NASTRES	QQYHRLPLS	GP_Gen
540 pM	6 of 6	0 of 18	KLSQSQLYESRNKNSVA	NASTREK	QQYHRLPLS	GP_Gen
13 nM	2 of 6	1 of 18	HISQSVGMTSRNKNSVA	ENSTREP	QQYDRLPLS	En_HC
4.5 nM	6 of 6	1 of 18	TISGMANQESTNKNSVA	ELTTRGS	QQYERLPLS	En_HC
4.1 nM	6 of 6	1 of 18	MLGDTVMQGLYSRNSVA	QESTRAE	QQYHHLPLS	En_HC
1.6 nM	6 of 6	2 of 18	KLPQSVLDESRNKASVA	WASTRES	QQYHRLPLS	Ctrl
5.6 nM	6 of 6	1 of 18	TISASMRYESSLKNAIA	NAQTRES	QQYHRLPIS	En_HC
75 nM	3 of 6	1 of 18	MIEIIHDGYEEMRSAIA	DTSLVRM	QQYYRLPLM	En_Gibbs
nd	0 of 6	0 of 18	IVSQLMIWGMHAKNSIA	EAETRLN	QQYERLPLF	En_Gen
29 nM	5 of 6	0 of 18	KQSQSVLYESRNKNAVA	MASTRES	QQYHRLPLS	GP_HC
16 nM	6 of 6	1 of 18	KYSQSVLYESVNKNSVA	DASTRES	QQYHRLPLS	GP_HC
870 pM	6 of 6	0 of 18	KIGMTLNQLMEKKNNVA	DLVEREN	QQYFRLPLS	En_Gen
2.6 nM	6 of 6	0 of 18	KLGMTLNTLYEKKNNVA	DLVTREN	QQYHRLPLS	En_Gen
1.0 nM	6 of 6	0 of 18	KLSQSELYESRNKNSVA	NASTRES	QAYHRLPLS	GP_Gen

Repeated from above, the 6 best binders with a signal in all replicates:

CDR-L1	CDR-L2	CDR-L3	group	Kd	detected	signal with controls
KLSQSFLYESRNKNSVA	EASTRES	QQYHRLPLS	GP_Gen	350 pM	6 of 6	1 of 18
KSQQSVLYESRNGNNVA	HASTRED	QQYHRLPLS	GP_HC	450 pM	6 of 6	0 of 18
KLSQSQLYESRNKNSVA	NASTREK	QQYHRLPLS	GP_Gen	540 pM	6 of 6	0 of 18
KFSQSQLYESRNKNSVA	NASQRES	QQYHRLPLS	GP_Gen	590 pM	6 of 6	0 of 18
KLSQSHLYESRNKNSVA	DASTRES	QQYHRLPLS	GP_Gen	690 pM	6 of 6	0 of 18
ASSPSVMGEERNSNSVA	AASTREQ	QQYHRLPLS	GP_Gibbs	780 pM	6 of 6	0 of 18

Values of this round are not directly comparable with the first-round values of the same sequences. The authors averaged sequences with at least three values out of six and counted those with two or fewer as poor binders. The parent sequence was in this pool as ten entries: three were never detected, three once, and four in most replicates, with averages from 2.2 nM to 240 nM.

The measurements come from Li et al. 2023 (doi:10.1038/s41467-023-39022-2) through the FLAb antibody collection.